This is a selection; strong and weak results do not stand in their true shares. The source made the active and inactive calls.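 How the source made its calls: active means Z-score of -3 or lower, scaled per plate to the spread of control and sample wells; inactive means z-score above -3.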
target: Protein-tyrosine kinase 2-beta (Homo sapiens) (UniProt Q14289); test: antagonists of Pyk2 self-association, primary screen, Q293 cells, FERM NanoBiT luminescence, HTS (AID 1347419); parameters: dose or concentration left out as unconfirmed; details: active compounds read low;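 further: the deposit names both 25 µM and 10 µM; negative z-score means lost luminescence so less FERM oligomerization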

Protein sequences, listed by entry. Tags and fused reporters are not part of them.
UniProt Q14289, whole entry, looked up: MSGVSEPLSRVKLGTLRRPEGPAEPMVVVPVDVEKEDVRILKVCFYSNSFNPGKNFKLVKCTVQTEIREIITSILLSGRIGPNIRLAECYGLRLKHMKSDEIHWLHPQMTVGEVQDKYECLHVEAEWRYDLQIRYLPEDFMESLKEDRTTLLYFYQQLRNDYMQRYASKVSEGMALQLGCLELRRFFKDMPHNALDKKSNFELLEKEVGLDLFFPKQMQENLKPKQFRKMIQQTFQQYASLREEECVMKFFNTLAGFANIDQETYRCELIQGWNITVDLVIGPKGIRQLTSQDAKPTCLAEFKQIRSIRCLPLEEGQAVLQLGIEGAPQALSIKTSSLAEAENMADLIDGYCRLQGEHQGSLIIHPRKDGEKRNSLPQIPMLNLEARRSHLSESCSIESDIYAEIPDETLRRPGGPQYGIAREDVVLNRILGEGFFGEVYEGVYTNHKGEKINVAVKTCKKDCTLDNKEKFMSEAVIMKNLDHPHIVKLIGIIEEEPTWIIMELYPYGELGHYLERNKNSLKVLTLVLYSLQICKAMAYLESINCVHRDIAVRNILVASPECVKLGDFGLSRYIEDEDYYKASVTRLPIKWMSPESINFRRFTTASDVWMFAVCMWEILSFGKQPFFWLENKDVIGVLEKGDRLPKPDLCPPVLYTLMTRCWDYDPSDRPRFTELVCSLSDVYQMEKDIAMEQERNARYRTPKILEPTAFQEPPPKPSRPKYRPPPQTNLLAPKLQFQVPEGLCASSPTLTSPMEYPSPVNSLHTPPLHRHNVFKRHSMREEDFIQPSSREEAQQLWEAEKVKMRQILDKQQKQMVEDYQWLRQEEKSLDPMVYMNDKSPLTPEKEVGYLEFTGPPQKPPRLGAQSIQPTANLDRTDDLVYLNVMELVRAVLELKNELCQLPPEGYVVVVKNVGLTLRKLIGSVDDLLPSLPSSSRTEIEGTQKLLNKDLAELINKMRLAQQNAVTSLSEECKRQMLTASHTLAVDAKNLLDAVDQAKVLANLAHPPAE

Compound	z-score
c1nnnn1CCn1cnnn1	inactive: 1
O=P(Nc1nccs1)(c1ccccc1)c1ccccc1	inactive: 1.5
O=C(OC1CN2CCC1CC2)c1cccc(Cl)c1 (stereo not drawn)	inactive: 0.66
COC(=O)c1cc2c(s1)N=C(c1ccccc1)N(C)P2(=O)N1CCOCC1 (stereo not drawn)	inactive: 0.34
CCC(=O)N1C2C3N(C(=O)CC)C1C1N(C(=O)CC)C(C(N1C(=O)CC)N3C(=O)CC)N2C(=O)CC	inactive: 0.6
O=P1(Nc2nc3ccc(Cl)cc3s2)COc2ccccc2O1 (stereo not drawn)	inactive: 0.42
CN1CCCC(OC(=O)C(c2ccccc2)c2ccccc2)C1 (stereo not drawn)	inactive: -0.58
CC(C)CC(=O)NC(Sc1ccc(Cl)cc1)C(Cl)(Cl)Cl (stereo not drawn)	inactive: -0.37
Oc1ccccc1CNc1ccccn1	inactive: 0.36
CCOP(=O)(Nc1ccccc1)OCC	inactive: 0.36
O=[N+]([O-])c1cccc2n[nH]nc12	inactive: 1.17
CC(=O)N1C2C3N(C(C)=O)C1C1N(C(C)=O)C(C(N1C(C)=O)N3C(C)=O)N2C(C)=O	inactive: 1.05
CCc1nc2c(n1)c1c(non1O)c1c2no[n+]1[O-]	inactive: -0.65
CN(C)C(=O)OCCc1n(C)cc[n+]1C	inactive: -0.02
CC1CCN(C(=O)Oc2c(Cl)cc(Cl)c3cccnc23)CC1	inactive: 0.12
O=C(COc1ccccc1)OC1CN2CCC1CC2 (stereo not drawn)	inactive: -0.28
COP1(=S)c2c(C)nn(CCC#N)c2N=C(c2ccc(F)cc2)N1C (stereo not drawn)	inactive: 0.39

Compound	z-score
CCC(C)N(CC(C)C)C(=S)SC(NC(C)=O)C(Cl)(Cl)Cl (stereo not drawn)	inactive: -0.8
CCN(CC)C(=S)SC(NC=O)C(Cl)(Cl)Cl (stereo not drawn)	inactive: -0.63
ClCCSc1nnc(-c2cccnc2)o1	inactive: 2.35
O=C(OC1CN2CCC1CC2)C12CC3CC(CC(C3)C1)C2 (stereo not drawn)	inactive: 1.26
Cc1cccc(OCC(=O)OC2CN3CCC2CC3)c1 (stereo not drawn)	inactive: 0.44
O=P(Nc1nccs1)(c1ccccc1)c1nc2ccccc2s1 (stereo not drawn)	inactive: 0.46
CCOP1(=S)c2c(C)nn(CCC#N)c2N=C(c2ccccc2F)N1C (stereo not drawn)	inactive: -0.45
O=[N+]([O-])c1ccc2c(c1)nnn2O	inactive: 0.38
CCOP1(=S)c2c(C)nn(CCC#N)c2N=C(c2ccc(F)cc2)N1C (stereo not drawn)	inactive: 0.49
Cc1nn(-c2ccccc2)c2c1P(=O)(N1CCOCC1)N(C)C(c1ccccc1)=N2 (stereo not drawn)	inactive: 0.74
O=P1(Nc2ccc(Br)cn2)COc2ccccc2OC1	inactive: 0.14
Cc1ccc(OCC(=O)OC2CN3CCC2CC3)cc1 (stereo not drawn)	inactive: 0.45
O=P1(Nc2ncccn2)COc2ccccc2OC1	inactive: 0.87
Clc1n[nH]nc1-c1nn[nH][15n]1	inactive: 0.57
O=P1(Nc2ccccn2)COc2ccccc2OC1	inactive: 1.06
CC1(CBr)Cn2c(nc3ccccc3c2=O)S1 (stereo not drawn)	inactive: 0.63

Source: PubChem BioAssay AID1347419 (Sanford-Burnham Center for Chemical Genomics, 2020)
